SMILES strings stand for the structures. Where only a bound is given, the exact number is not on record here.

Sequences of proteins named here, by UniProt entry; tags and fusion partners are left off.
UniProt P28845, whole entry: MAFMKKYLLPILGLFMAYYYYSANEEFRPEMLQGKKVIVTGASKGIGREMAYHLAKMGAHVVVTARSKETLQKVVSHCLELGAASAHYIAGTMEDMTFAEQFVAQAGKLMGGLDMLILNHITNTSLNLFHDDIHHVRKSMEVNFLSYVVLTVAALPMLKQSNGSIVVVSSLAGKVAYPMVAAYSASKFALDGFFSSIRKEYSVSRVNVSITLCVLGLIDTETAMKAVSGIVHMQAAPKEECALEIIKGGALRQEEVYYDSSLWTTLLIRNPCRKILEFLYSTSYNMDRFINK
UniProt P80365, whole entry: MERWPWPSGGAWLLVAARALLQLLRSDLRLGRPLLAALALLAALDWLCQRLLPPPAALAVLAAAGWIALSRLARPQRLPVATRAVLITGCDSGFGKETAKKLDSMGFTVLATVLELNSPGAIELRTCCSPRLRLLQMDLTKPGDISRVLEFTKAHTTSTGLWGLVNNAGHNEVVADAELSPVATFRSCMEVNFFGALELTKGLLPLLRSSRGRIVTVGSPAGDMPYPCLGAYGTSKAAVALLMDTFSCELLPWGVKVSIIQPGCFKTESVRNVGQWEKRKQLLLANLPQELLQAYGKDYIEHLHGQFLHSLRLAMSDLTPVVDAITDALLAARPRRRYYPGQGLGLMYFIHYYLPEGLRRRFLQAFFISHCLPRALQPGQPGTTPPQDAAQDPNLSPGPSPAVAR

In experiment [1] the target is human recombinant 11β-HSD1 (Homo sapiens, UniProt P28845). Nature of the experiment: Test for measuring human 11β-HSD1 inhibitory activity (HTRF cortisol detection). Conditions: read-out: Human 11β-HSD1 (IC50/μM); human recombinant enzyme, 200 nM cortisone, 40 μM NADPH, pH 6.6, room temperature 1 hour; average of 3 wells. Here is the method: (§1) (1) Test for Measuring Human 11β-HSD1/11β-HSD2 Inhibitory Activity
(§2) The procedure for measuring human 11β-HSD1/11β-HSD2 inhibitory activity is as follows. The enzymatic reaction and measurement were performed using a 384-well plate. The reaction was carried out by adding a test compound in various concentrations to a reaction solution containing a 10 mM phosphate buffer solution (pH 6.6), 200 nM cortisone, 40 μM reduced nicotinamide adenine dinucleotide phosphate (NADPH), and human recombinant 11β-HSD1 and then incubating the mixture at room temperature for 1 hour (10 μl/well). The test compound was dissolved in dimethyl sulfoxide (DMSO) to prepare a sample so that the DMSO concentration in the reaction solution became 1%. After the enzymatic reaction, an enzymatic inhibitory activity was measured by detecting cortisol using homogeneous time-resolved fluorescence (HTRF). […] Then, fluorescence intensity was measured using a fluorophotometer (product name: Discovery, PerkinElmer) and an enzymatic inhibitory activity was calculated based on two-wavelength fluorescence intensity ratio (665 nm/620 nm).
(§3) The results of the measurement were calculated as an average of the values for 3 wells obtained under the same conditions.

In experiment [2] the target is human recombinant 11β-HSD2 (Homo sapiens, UniProt P80365). Description: Test for measuring human 11β-HSD2 inhibitory activity (HTRF cortisol detection). Conditions: read-out: Human 11β-HSD2 (IC50/μM); human recombinant enzyme, 200 nM cortisol, 200 μM NAD, pH 8.0, 37° C. 2 hours; average of 3 wells. On the procedure:
as §1
as §2, with “nm). […]” for “nm).”
as §3
For orientation: TR-FRET usually uses a lanthanide donor and a delayed reading to cut background.

With `CC(C)(c1ccc(Cl)s1)c1nnc2n1CCCCCC2`, the IC50 was 0.0052 µM in experiment [1] and above 1 µM in experiment [2].

The record behind these values is patent US7776897B2, “Triazole derivative or salt thereof” (Astellas Pharma Inc., priority 2004, dated 2010).
